{"source": "patent US7592320B2", "about": "“Cancer gene therapy based on translational control of a suicide gene” (priority 2001, dated 2009)", "key": {"[1]": {"tested_on": "MDA-435S"}, "[2]": {"tested_on": "MCF7"}, "[3]": {"tested_on": "MDA-231"}, "[4]": {"tested_on": "MM2MT", "procedure": "(§1) Each vector was then stably transfected into either MM3MG cells (ATCC No.CRL6376, a normal mouse mammary line) or MM2MT cells (ATCC No. CRL6373, a mouse mammary carcinoma line). Unless otherwise stated, all cell lines were purchased from the American Type Culture Collection (“ATCC”), Manassas, Va. To overexpress eIF4E (referred to as eIF4E-S, for “sense”), the eIF4E cDNA was cloned into KpnI and NotI sites of the pREP7 episomal vector (Invitrogen, Carlsbad, Calif.). To reduce the eIF4E expression (referred to as eIF4E-AS, for “antisense”), an antisense eIF4E construct was subcloned into the pREP7 vector as described in A. De Benedetti et al., “Expression of antisense RNA against initiation factor eIF-4E mRNA in HeLa cells results in lengthened cell division times, diminished translation rates, and reduced levels of both eIF-4E and the P220 component of eIF-4F,” Mol. Cell. Biol., vol. 11, pp. 5435-5445 (1991).\n(§2) All transfections were performed with the GenePORTER reagent (Gene Therapy Systems, San Diego, Calif.). Stable cell lines were obtained by selection with G418 for the BK constructs, and Hygromycin B for the pREP7 vectors."}, "[5]": {"tested_on": "MM3MG", "procedure": "as §1, §2"}}, "note": "“And” between values parts separate entries of the source, which are not always exact repeats. Equal values may be shown once. Read-outs that look alike come from different tables or passages of the source."}
{"smiles": "Nc1nc(O)c2ncn(COC(CO)CO)c2n1", "note": "[GCV, Ganciclovir]", "values": [{"measurement": "Selective Index", "setting": "[1]", "value": 23.3}, {"measurement": "Selective Index", "setting": "[2]", "value": "300 and 600"}, {"measurement": "Selective Index", "setting": "[3]", "value": 1.5}, {"measurement": "Selective Index", "setting": "[4]; MM2MT-TK cells", "value": 1000}, {"measurement": "Selective Index", "setting": "[4]; MM2MT-TK/4E-AS cells", "value": 633}, {"measurement": "Selective Index", "setting": "[4]; MM2MT-UTK cells", "value": 190}, {"measurement": "Selective Index", "setting": "[4]; MM2MT-UTK/4E-AS cells", "value": 1.7}, {"measurement": "fold higher concentration of GCV to which cells became resistant", "setting": "[4]; MM2MT-UTK/4E-AS cells, eIF4E reduced with antisense RNA", "value": 370, "unit": "fold"}, {"measurement": "Selective Index", "setting": "[5]; MM3MG-TK cells", "value": 667}, {"measurement": "Selective Index", "setting": "[5]; MM3MG-UTK cells", "value": 2.7}, {"measurement": "Selective Index", "setting": "[5]; MM3MG-UTK/4E-AS cells (so in the source)", "value": 222}]}
